Measured values reported in US20070202515A1, “Promac signature application” (PATHOLOGICA, LLC., priority 2005, published 2007).

Tested on: G1P3, GPR43, IFIT2, ORM1, TNFSF10
Assay: LC5-CI quantitative RT-PCR classification index on PBMCs
Parameters: species or system human
Details: in vivo
Method: The 361 probe sets encompassed 280 known genes or transcripts associated with various functions including the α/β interferon response (gene symbol ═IFIT2, IFI27), signal transduction (IRAK3, TNFAIP6) and the immune response (CD80, FCGR2A). […] Thus, the changes observed in all three populations are not primarily a response to in vitro incubation. […] Aliquots of the RNA preparations were then RT-PCR amplified using quantitative real time methods employing a Light-Cycler^36. The signals obtained were normalized against the signal obtained with primers for β-actin according to the formula Ctactin−Ctgene=NSig where Ct=the threshold cycle for the indicated gene and NSig=the normalized signal.
The existence of significant changes in the gene expression of PBMCs of ALS patients relative to controls raised the possibility that these changes could be used to assist in the diagnosis of ALS. […] ALS and control patients were divided into training and test sets and the actin normalized signal for each sample with each primer set was determined as described above. Then the voting weights (modified Rs) were calculated using the test samples according to the formula Mod R=(Mean ALS−Mean CON)/(StDev ALS+StDev CON) calculated using 13 ALS samples & 11 controls.
Next the inflection point or the mid point between the ALS and control samples is calculated according to MID=(MeanALS+MeanCON)/2 […]

Question: Which “mean LC5-CI scores, patients taking vs not taking the drug” value does the source give for `Nc1nc2ccc(OC(F)(F)F)cc2s1` [Riluzole, reference compound] here?
Answer: not significantly different
